Target: human HSD-1 (recombinant HSD-1) (Homo sapiens, UniProt P28845)
Assay: HSD-1 (hydroxysteroid dehydrogenase 1) activity inhibitory action in vitro, SPA, conversion of cortisone to cortisol
Details: read-out: hHSD1 (IC50 (nM)), recombinant human HSD-1 expressed using baculovirus system, 10 nM 3H cortisone, 500 μM NADPH, room temperature 90 to 120 min

Amino acid sequences for entries named in this document (tags omitted).
UniProt P28845, whole entry: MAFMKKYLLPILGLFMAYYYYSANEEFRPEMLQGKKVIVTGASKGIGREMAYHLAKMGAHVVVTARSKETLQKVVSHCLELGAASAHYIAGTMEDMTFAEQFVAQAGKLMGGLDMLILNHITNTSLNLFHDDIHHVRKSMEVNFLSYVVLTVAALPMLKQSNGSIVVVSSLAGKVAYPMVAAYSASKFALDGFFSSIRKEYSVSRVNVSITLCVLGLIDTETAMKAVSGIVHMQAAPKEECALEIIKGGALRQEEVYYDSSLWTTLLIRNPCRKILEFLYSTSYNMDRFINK

CCONC(=O)N1CCC(n2ncc(C(=O)N3CCC(c4ccccc4C(F)(F)F)C3)c2C2(C)CC2)CC1 (stereo not shown)
IC50: < 30 nM

Reference: patent US20110245223A1, “HETEROCYCLIC COMPOUNDS” (Japan Tobacco Inc., priority 2005, published 2011)
